# Assay results as given in PubChem BioAssay AID1945 (The Scripps Research Institute Molecular Screening Center, 2009).
# The list shows a part of the results, in another mix than the full data. Active and inactive are the calls of the source. No stated cut-off is given here; in the data, active means inhibition above about 37%; inactive means the rest.
# Assay: compounds displacing fluorescent DNA intercalator, artefact control for HCV NS3 helicase inhibitor project, biochemical, FID fluorescence, triplicate (AID 1945);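 further: 0% = vehicle and 100% = reference compound; higher means more displacement of ethidium bromide from the DNA hairpin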
# Conditions: DNA fluorescent intercalator displacement, at 7.9 µM, active compounds read high
row,SMILES,inhibition
1,Nc1cccc2c([As](=O)(O)O)cccc12,inactive: -2.59%
2,C[N+]1=C2C=CC=CC=C2SC12C([N+](=O)[O-])=CC([N+](=O)[O-])=C[C-]2[N+](=O)[O-] (stereo not drawn),inactive: 18.5%
3,O=[N+]([O-])c1cc([N+](=O)[O-])c(CCN2CCOCC2)c([N+](=O)[O-])c1,inactive: 31.9%
